Results as given in article PMC9929232, “On-demand male contraception via acute inhibition of soluble adenylyl cyclase” (Nature Communications, 2023).

Test system: epididymal mouse sperm
Assay: Tyrosine phosphorylation (pY) Western blot of sperm from injected mice
Details: Fig. S1d; 1:25 capacitating media

Cc1c(Cc2ccccc2)c(-c2cc(Cl)nc(N)n2)nn1C [TDI-10229, reference compound]
normalized pY: 1.59
